Tested on: Normal human epidermal melanocytes (NHEM)
Conditions: 250 μM, 24 hours, FIG. 15
Procedure: Normal human epidermal melanocytes (NHEM: from Kurabo Industries Ltd.) were seeded at a cell density of 2.0×10^4 cells/well in a 96-well culture plate using a medium (DermaLife (registered trademark) M Comp kit medium: from Kurabo Industries Ltd.). Subsequently, the cells were cultured at 37° C. under 5% carbon dioxide for 24 hours. […] After the culture, a cell viability was measured by the neutral red assay. A cell viability of each sample with HQ or BQ added thereto was calculated assuming that a cell viability of an additive-free control (N.C.) was 100%.

With `O=C1C=CC(=O)C=C1` [benzoquinone] the “cytotoxicity (cell viability)” value was “exhibit cytotoxicity”.
